Data as given in PMC5797126, “Identification of influenza polymerase inhibitors targeting C-terminal domain of PA through surface plasmon resonance screening” (Scientific Reports, 2018).

Assays:
[1] = test system: 293T cells
[2] = test system: MDCK cells

SMILES | CC50 [1] | CC50 [2]
Cn1c(=O)c(Cc2ccccc2)c(O)c2c(=O)n(-c3ccccc3)c(=O)n(-c3ccccc3)c21 | > 100 µM | > 100 µM
O=C1C2=C(CCC2)NC2C1C(=O)N(c1ccccc1)C(=O)N2c1ccccc1 (stereo not shown) | > 100 µM | > 100 µM
CC1(C)CC(=O)c2c(O)c(-c3ccccc3)c(=O)n(-c3ccccc3)c2C1 | > 100 µM | > 100 µM
O=c1c(-c2ccccc2)c(O)c2c(n1-c1ccccc1)CCCC2 | > 100 µM | > 100 µM
O=C1C(c2ccccc2)=C(O)c2cccc3c(=O)n(-c4ccccc4)c(O)c1c23 | 62.7 µM | 87 µM
